Molecular target: hGal-1 (Homo sapiens, UniProt P09382)
Test: ITC
Format: binding

Chains of the proteins cited; added tags and fusions are not shown. Residues count along the entry.
UniProt P09382, 2-135: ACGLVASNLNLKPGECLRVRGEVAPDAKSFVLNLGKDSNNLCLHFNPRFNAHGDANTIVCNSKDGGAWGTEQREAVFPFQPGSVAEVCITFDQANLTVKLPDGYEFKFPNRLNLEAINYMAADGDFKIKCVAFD

Kd: 82.7 ± 2.9 µM
SMILES: OC[C@H]1O[C@@H](S[C@@H]2O[C@H](CO)[C@H](O)[C@H](O)[C@H]2O)[C@H](O)[C@@H](O)[C@H]1O [TDG]

— PMC7839768 (Chemistry (Weinheim an Der Bergstrasse, Germany), 2020)
